Experimental data published in patent EP4825838A1, “CATIONIC LIPID AND USE THEREOF” (dated 2026).

Columns and labels:
female Balb/c mice [1] = assay: mRNA delivery efficiency and tissue distribution after in vivo tail vein injection of luciferase mRNA lipid nanoparticle compositions (Test Example 1); settings: LNP of the compound, tail vein injection 0.5 mg/kg, whole mouse IVIS
interleukin 6 (IL-6) = assay: In vivo safety: IL-6 concentration in muscle tissue after intramuscular injection of lipid nanoparticle compositions, ELISA (Test Example 3); settings: LNP of the compound, hepatocyte growth factor mRNA, intramuscular 0.05 mg/kg, muscle tissue at injection site after 6 h
[2] = Characterization of lipid nanoparticle compositions (size, PDI, encapsulation efficiency); settings: for Size (nm): lipid nanoparticles of the compound with DSPC, cholesterol, DMG-PEG 50:10:38.5:1.5, luciferase mRNA
[3] = Freeze-drying of lipid particle compositions: particle size, PDI, encapsulation efficiency before and after (Test Example 4)
female Balb/c mice [4] = assay: mRNA delivery efficiency after intramuscular administration of luciferase mRNA lipid nanoparticles (Test Example 2); settings: LNP of the compound, intramuscular 0.1 mg/kg, 24 h after administration
female Balb/c mice [5] = assay: Hepatocyte growth factor protein expression in muscle after intramuscular injection of HGF mRNA lipid nanoparticle compositions, ELISA (Test Example 2); settings: LNP of the compound, gastrocnemius muscle injection 0.05 mg/kg, muscle at injection site after 6 h

Size (nm) ([2]; dynamic light scattering)	Encapsulation efficiency (%) ([2]; lipid nanoparticles of the compound, luciferase mRNA, Quant-iT RiboGreen RNA assay kit)	PDI ([2]; lipid nanoparticles of the compound, luciferase mRNA, dynamic light scattering)	Encapsulation efficiency before freeze-drying (%) [3]	PDI after freeze-drying [3]	PDI before freeze-drying [3]	Rate of change in particle size after freeze-drying (%) ([3]; after vs before freeze-drying)	Particle size before freeze-drying (nm) ([3]; lipid nanoparticles in 20 mM Tris, pH 7.5, 8% sucrose)	Particle size after freeze-drying and reconstitution (nm) ([3]; reconstitution with 0.6 mL water for injection)	SMILES	Mean fluorescence intensity (p/s) 24 h (female Balb/c mice [1]; 24 h after administration)	Mean fluorescence intensity (p/s) 48 h (female Balb/c mice [1]; 48 h after administration)	Tissue IL-6 concentration (interleukin 6 (IL-6))	Mean fluorescence intensity (p/s) (female Balb/c mice [4])	Mean protein expression level (female Balb/c mice [5])
90.3 nm	92%	0.17	94.0%	0.16	0.14	76.3%	92.9 nm	163.8 nm	CCCCCCCCCCCOC(=O)CCCCCN(CCO)CCCCCOCC(=O)OC(CCCCCCCC)CCCCCCCC	5.39E+09 p/s	2.27E+08 p/s	508.1 pg/mg	2.02E+08 p/s	
96.0 nm									CCCCCCCCCCCOC(=O)CCCCCN(CCO)CCCCCCCC(=O)OC(CCCCCCCC)CCCCCCCC					3.45 ng/mg
